Columns and labels:
[1] = molecular target: Sphingosine 1-phosphate receptor 1 (Homo sapiens) (UniProt P21453); assay: Antagonist activity at human S1P1 receptor expressed in CHO-K1 cells assessed as reduction of S1P-induced [Ca2+] level at 10 uM relative to control; type: functional, cell-based; set-up: scale not given: the % may be the effect or the level left
[2] = molecular target: Sphingosine 1-phosphate receptor 2 (Homo sapiens) (UniProt O95136); assay: Antagonist activity at human S1P2 receptor expressed in CHO-K1 cells assessed as reduction of S1P-induced [Ca2+] level at 10 uM relative to control; type: functional, cell-based; set-up: scale not given: the % may be the effect or the level left

The chains behind the UniProt entries cited, without tags or fusion partners. Where a name states a change or a piece, a line headed by the entry shows the natural chain unless it says otherwise.
UniProt P21453, whole entry: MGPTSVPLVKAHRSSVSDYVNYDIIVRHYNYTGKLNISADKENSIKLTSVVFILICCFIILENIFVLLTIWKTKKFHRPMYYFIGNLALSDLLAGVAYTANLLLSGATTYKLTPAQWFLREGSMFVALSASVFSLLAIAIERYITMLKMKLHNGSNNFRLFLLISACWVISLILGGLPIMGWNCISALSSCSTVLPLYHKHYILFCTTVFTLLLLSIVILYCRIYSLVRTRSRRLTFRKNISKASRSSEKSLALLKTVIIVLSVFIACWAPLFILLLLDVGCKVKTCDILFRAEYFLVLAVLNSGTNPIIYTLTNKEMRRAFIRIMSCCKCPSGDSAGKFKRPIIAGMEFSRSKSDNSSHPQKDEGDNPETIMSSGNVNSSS
UniProt O95136: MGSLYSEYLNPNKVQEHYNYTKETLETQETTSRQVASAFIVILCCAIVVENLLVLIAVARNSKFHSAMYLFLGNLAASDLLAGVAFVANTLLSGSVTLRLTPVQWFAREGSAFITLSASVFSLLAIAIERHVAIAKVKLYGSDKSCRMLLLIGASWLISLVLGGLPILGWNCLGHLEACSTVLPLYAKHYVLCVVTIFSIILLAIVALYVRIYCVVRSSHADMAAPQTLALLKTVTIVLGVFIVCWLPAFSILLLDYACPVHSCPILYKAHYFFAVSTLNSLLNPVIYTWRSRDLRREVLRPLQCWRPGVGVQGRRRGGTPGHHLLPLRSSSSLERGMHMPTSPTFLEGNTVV

SMILES	Activity [1]	Activity [2]
CC(C)(C)C(=O)/C(=N/c1ccc(Cl)cc1)NNc1ccc(Cl)cc1	29.5%	1.7%
CC(C)(C)C(=O)/C(=N\Nc1ccc(Cl)cc1)Nc1cccc(F)c1	22.4%	-11.1%

Reference: ChEMBL document CHEMBL5576043, “Synthesis, radiosynthesis and biochemical evaluation of fluorinated analogues of sphingosine-1-phosphate receptor 3 specific antagonists using PET” (Bioorg Med Chem, 2024)
